From patent US20090120809A1, “Nitroreductase biosensors for detecting nitro-compounds” (published 2009)

Amino acid sequences for entries named in this document (tags omitted). Chains listed by the source or under a name are the forms on record and can include a tag or linker. Residues count along the entry.
UniProt P38489, 2-217 with tags or gaps: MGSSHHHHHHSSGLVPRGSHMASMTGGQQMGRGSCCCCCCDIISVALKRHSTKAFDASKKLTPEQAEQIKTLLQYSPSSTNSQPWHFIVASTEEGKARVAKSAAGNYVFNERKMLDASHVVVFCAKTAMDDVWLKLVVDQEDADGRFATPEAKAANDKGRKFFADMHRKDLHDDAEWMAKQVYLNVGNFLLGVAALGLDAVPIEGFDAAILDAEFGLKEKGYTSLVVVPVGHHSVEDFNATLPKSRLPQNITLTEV

biological target: NfnB-cys1 (Escherichia coli, UniProt P38489); assay: Amperometric response of biosensor (gold slide modified with NfnB-cys1); settings: 2 nM DNEB in the cell; +100 mV vs SCE; 0.1 M phosphate buffer pH 7.1; co-factor dicarboxylic ferrocene

Compound	drop in current after addition of substrate
2,4-dinitroethylbenzene	approximately 10 nA

biological target: Cys6 tagged nfnB nitroreductase (Escherichia coli, UniProt P38489); assay: Nitroreductase UV assay (NADPH, 340 nm) with various nitro substrates; settings: FIG. 5, 25° C.

Compound	activity of Cys6 tagged nfnB nitroreductase on various substrates (substrate quality)
O=[N+]([O-])c1ccccc1[N+](=O)[O-]	excellent substrates
CCCCC(CC)CO[N+](=O)[O-] (stereo not shown)	good substrates
2,4-dinitroethylbenzene	excellent substrates
4-nitrobenzoate	excellent substrates
Cc1ccc([N+](=O)[O-])cc1	good substrates
O=[N+]([O-])c1ccccc1	good substrates
